Assay results from ChEMBL document CHEMBL3734659, “Identification of tris-(phenylalkyl)amines as new selective h5-HT2Breceptor antagonists” (Medchemcomm, 2015).

System: HEK293
Experiment: Selectivity ratio of Ki for human recombinant 5-HT2A receptor expressed in HEKT cell membrane to Ki for human recombinant 5-HT2B receptor stably expressed in HEK cells
Type: cell-based

SMILES: COc1ccc(CCN(CCCc2cc(OC)c(OC)c(OC)c2)Cc2ccc3c(c2)OCO3)cc1OC
- Ratio Ki: 10
